# Permeability data for macrocyclic peptides

Source: CycPeptMPDB (Li et al. 2023), which took these values from Barlow et al. 2020, doi:10.1021/acschembio.0c00218.

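Lipid, pH, incubation time, direction and concentration are not recorded in the data file. Other peptides of the study may be missing here. Peptides that the database sets to -10, its floor, are left out.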

PAMPA measures passive passage through an artificial lipid membrane. Permeability is in 10^-6 cm/s, converted from the database's log10 values; higher is more permeable. A value with < or ≤ is an upper limit.

SMILES | PAMPA (10^-6 cm/s)
CC[C@H](C)[C@@H]1NC(=O)CCCNC(=O)[C@H](CC(C)C)N(C)C(=O)[C@H](CCC(=O)OC)NC(=O)[C@H](CC(C)C)N(C)C1=O | 3.3
CC[C@H](C)[C@@H]1NC(=O)CCCNC(=O)[C@H](CC(C)C)N(C)C(=O)[C@H](CCC(N)=O)NC(=O)[C@H](CC(C)C)N(C)C1=O | < 0.1
CC[C@H](C)[C@H]1C(=O)N[C@@H](CC(C)C)C(=O)N[C@@H](CC(C)C)C(=O)N(C)[C@@H](CC(C)C)C(=O)NCCCC(=O)N1C | 5.4
CC[C@H](C)[C@@H]1NC(=O)CCCNC(=O)[C@H](CC(C)C)N(C)C(=O)[C@H](CCCCN)NC(=O)[C@H](CC(C)C)N(C)C1=O | < 0.1
CCOC(=O)N(C(=O)CC[C@@H]1NC(=O)[C@H](CC(C)C)N(C)C(=O)[C@H]([C@@H](C)CC)NC(=O)CCCNC(=O)[C@H](CC(C)C)N(C)C1=O)C(=O)OCC | 5.6
CC[C@H](C)[C@H]1C(=O)N(C)[C@@H](CC(C)C)C(=O)N[C@@H](CC(C)C)C(=O)N(C)[C@@H](CC(C)C)C(=O)N(C)CCCC(=O)N1C | 5
CCOC(=O)n1cnc(C[C@@H]2NC(=O)[C@H](CC(C)C)N(C)C(=O)[C@H]([C@@H](C)CC)NC(=O)CCCNC(=O)[C@H](CC(C)C)N(C)C2=O)c1 | 3.5
CC[C@H](C)[C@@H]1NC(=O)CCCN(C)C(=O)[C@H](CC(C)C)NC(=O)[C@H](CC(C)C)N(C)C(=O)[C@H](CC(C)C)NC1=O | 5
CC[C@H](C)[C@@H]1NC(=O)CCCNC(=O)[C@H](CC(C)C)N(C)C(=O)[C@H](CCCCNC(=O)C(F)(F)F)NC(=O)[C@H](CC(C)C)N(C)C1=O | 4.8
CC[C@H](C)[C@@H]1NC(=O)CCCNC(=O)[C@H](CC(C)C)N(C)C(=O)[C@H](CC(=O)OC)NC(=O)[C@H](CC(C)C)N(C)C1=O | 3.9
CC[C@H](C)[C@@H]1NC(=O)CCCNC(=O)[C@H](CC(C)C)NC(=O)[C@H](CC(C)C)NC(=O)[C@H](CC(C)C)NC1=O | 0.2
CC[C@H](C)[C@@H]1NC(=O)CCCNC(=O)[C@H](CC(C)C)N(C)C(=O)[C@H](CCC(=O)O)NC(=O)[C@H](CC(C)C)N(C)C1=O | < 0.1
CC[C@H](C)[C@@H]1NC(=O)CCCNC(=O)[C@H](CC(C)C)NC(=O)[C@H](CC(C)C)N(C)C(=O)[C@H](CC(C)C)N(C)C1=O | 3.6
CC[C@H](C)[C@@H]1NC(=O)CCCNC(=O)[C@H](CC(C)C)N(C)C(=O)[C@H](CC(C)C)NC(=O)[C@H](CC(C)C)NC1=O | 1
CCOC(=O)/N=C(/NCCC[C@@H]1NC(=O)[C@H](CC(C)C)N(C)C(=O)[C@H]([C@@H](C)CC)NC(=O)CCCNC(=O)[C@H](CC(C)C)N(C)C1=O)NC(=O)OCC | 1.3
CC[C@H](C)[C@@H]1NC(=O)CCCNC(=O)[C@H](CC(C)C)N(C)C(=O)[C@H](CC(N)=O)NC(=O)[C@H](CC(C)C)N(C)C1=O | < 0.1

The last 2 entries again:

SMILES	PAMPA (10^-6 cm/s)
CCOC(=O)/N=C(/NCCC[C@@H]1NC(=O)[C@H](CC(C)C)N(C)C(=O)[C@H]([C@@H](C)CC)NC(=O)CCCNC(=O)[C@H](CC(C)C)N(C)C1=O)NC(=O)OCC	1.3
CC[C@H](C)[C@@H]1NC(=O)CCCNC(=O)[C@H](CC(C)C)N(C)C(=O)[C@H](CC(N)=O)NC(=O)[C@H](CC(C)C)N(C)C1=O	< 0.1